## Ab-14 heavy chain CDR variants: yeast mating affinities

From the AlphaSeq antibody data of Engelhart et al. 2022 (doi:10.1038/s41597-022-01779-4), copy in the FLAb collection.

Target: peptide PDVDLGDISGINAS, taken from heptad repeat 2 (HR2) of SARS-CoV-2 spike.

Ab-14 is the parent antibody, in scFv form: VH, then a (GGGGS)3 linker, then VL. The light chain is unchanged in all variants.
VH: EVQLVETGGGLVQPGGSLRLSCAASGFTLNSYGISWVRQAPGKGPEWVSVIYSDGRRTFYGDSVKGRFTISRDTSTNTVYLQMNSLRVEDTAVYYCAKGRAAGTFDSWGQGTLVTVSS
VL: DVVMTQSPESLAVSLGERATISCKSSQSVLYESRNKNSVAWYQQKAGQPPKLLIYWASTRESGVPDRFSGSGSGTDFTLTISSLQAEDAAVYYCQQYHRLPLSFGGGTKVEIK

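Variants in AAYL49 differ from the parent at up to three CDR positions; double and triple changes were sampled at random. AlphaSeq pools MATa yeast showing the antibodies with MATalpha yeast showing the peptide. After mating in shaken culture at 30 °C for 16 h, diploids were selected and their barcode pairs sequenced. A regression on co-assayed BCL2-family reference pairs converts the normalised counts of each replicate to an apparent Kd. Each pool was mated in three replicate cultures.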

Changes read parent residue, position, new residue, counted from the first residue of the VH shown.
Values are apparent Kd, the geometric mean of the replicates that gave a signal; lower means stronger binding.
"no signal" marks a missing value. The strain was present, yet no cells mated with the target were sequenced in any replicate, which points to weak or no binding.

changes	Kd	detected
Y52D S53Q V64F	130 µM	1/3
T28C R57Q A102N	51 µM	2/3
T58N D62I V64Q	no signal	0/3
F27E G33V I34N	no signal	0/3
L29A Y32A Y52K	32 µM	1/3
D54A G55Q V64K	24 µM	3/3
N30E Y32S Y60A	9.4 µM	1/3
R57M K65C T104W	5.5 µM	1/3
R56C T58D T104Y	120 µM	2/3
L29M R57E D106M	8.8 µM	1/3
I34W Y52I K65Q	no signal	0/3
Y32D S53K S107Q	no signal	0/3
D54N Y60F K65E	no signal	0/3
N30I S31G V64D	no signal	0/3
N30A S31Y Y32K	no signal	0/3
T28A A101M T104H	no signal	0/3
T28Y D54V G61N	no signal	0/3
D62V V64S S107L	24 µM	3/3
V64L D106H S107E	no signal	0/3
F27M R57Q D62N	no signal	0/3
V50F R57C Y60G	140 µM	1/3
N30Q R57N F59M	no signal	0/3
R56C G103K F105N	14 nM	3/3
I51C G61I G103R	13 µM	3/3
T28E R57M F105Y	no signal	0/3
Y52I D54S R57C	no signal	0/3
S31N V50C V64M	160 µM	2/3
S53A R57T G61M	11 nM	3/3
T58D D62P	380 nM	3/3
L29V S53N Y60F	5.4 µM	1/3
L29W T58E A101C	no signal	0/3
F27W Y52A Y60M	2.2 µM	1/3
T28E S31T I51Y	no signal	0/3
Y32K R56K S63F	85 µM	2/3
R57M K65M S107N	no signal	0/3

The remaining entries, values ahead:

Kd	detected	changes
750 nM	3/3	D62L G99A
460 nM	1/3	N30S D106Y S107Q
no signal	0/3	S31L Y32R Y60F
2.1 µM	1/3	G33F I51Y Y60G
23 µM	2/3	I51K S63R G103H
32 nM	3/3	R56Y F59G A101F
260 nM	2/3	R56F S107K
no signal	0/3	F27S T58K V64I
no signal	0/3	G33T I34C S63G
no signal	0/3	S35I I51R F105V
no signal	0/3	G26S T28N S35D
no signal	0/3	S31Y R56Y T58P
no signal	0/3	S35M S53G D62I
no signal	0/3	S35Y V50L G55W
no signal	0/3	R57G D62M K65V
50 nM	3/3	T28A V64Q R100T
no signal	0/3	I34A V50F S63H
62 µM	1/3	G26D L29I G33S
2.5 µM	1/3	L29Y F59P
1.6 µM	3/3	S63N V64C F105K
no signal	0/3	N30Y D54N F59T
2.3 µM	2/3	G26T T28Y
250 nM	3/3	N30V S31K I51L
4.2 µM	1/3	Y32L I34E G103F
2.2 nM	3/3	T28K G61E A101N
no signal	0/3	L29H G55M A102W
100 µM	1/3	G26W R56P S107G
no signal	0/3	G33K I51M D106E
570 nM	3/3	N30Y I34M R100K
540 nM	3/3	F27R S31I G61V
120 µM	1/3	S35R S53W F105T
62 nM	3/3	T28I T104M
990 nM	1/3	S31P T58V
46 nM	3/3	F27N R100Q A101K
11 µM	3/3	T28V G33D D62K
10 µM	2/3	F27L K65R A101W

Parent in this assay: reference entry 4.4 nM, copy in this library 13 µM (one replicate of three).
Three control strains display no target. For library AAYL49, 15% of the pairings with them gave a signal, with a median of 11 µM and one signal in twenty below 680 nM, so weak values seen in few replicates may be background.